For one compound, selectivity ratio results are on record in ChEMBL document CHEMBL5120909, “Reshaping an Acyclic Nucleoside Phosphonate into a Selective Anti-hepatitis B Virus Compound” (J Med Chem, 2022).

Molecules are shown by their SMILES.

This data set is described as follows: Selectivity index, ratio of CC50 for cytotoxicity against human HFF cells infected with HCMV AD-169 virus assessed as reduction in cell viability by cell titer-glo assay to EC50 for antiviral activity against HCMV AD-169 infected in HFF cells assessed as inhibition of virus-induced cytopathic effect measured after 14 days. Conditions: read-out: Ratio CC50/EC50. In kind it is toxicity, cell-based. (In general: ATP-based viability assays read luminescence as a measure of living cells.)

For the compound `Nc1nc(O)c2ncn(COC(CO)CO)c2n1` [GANCICLOVIR], the selectivity ratio at 336 h is more than 175.
